Chains of the proteins cited; added tags and fusions are not shown.
UniProt E9AFX2, whole entry: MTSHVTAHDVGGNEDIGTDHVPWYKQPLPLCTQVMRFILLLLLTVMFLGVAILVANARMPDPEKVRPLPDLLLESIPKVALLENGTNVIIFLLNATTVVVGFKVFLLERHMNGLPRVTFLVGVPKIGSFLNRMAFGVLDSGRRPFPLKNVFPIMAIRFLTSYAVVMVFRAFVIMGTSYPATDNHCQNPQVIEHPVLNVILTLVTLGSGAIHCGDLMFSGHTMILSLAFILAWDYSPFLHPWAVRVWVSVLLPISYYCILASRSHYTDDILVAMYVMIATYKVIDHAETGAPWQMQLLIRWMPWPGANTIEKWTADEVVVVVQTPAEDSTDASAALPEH

In paper PMC11862611 (RSC Medicinal Chemistry, 2025):

Molecular target: L. majIPCS (Leishmania major, UniProt E9AFX2)
Assay: inhibition of microsomal enzyme preparation of L. majIPCS
Format: biochemical
Conditions: for IC50: read-out: LmjIPCS IC50
From the text: When tested against microsomal enzyme preparations of L. majIPCS[16] (Fig. 2, Table S1 ^†) the comparisons of pyrrolidine, tetrahydrofuran and cyclopentane derivatives 19, 21–23 supported earlier observations that all active compounds retained a basic nitrogen in the head group.[17] In general, whilst enzyme inhibitory activity was retained in a number of these analogues, much lower activity was observed against promastigote parasites. […] Speculating that this lower activity in promastigote parasite assays reflected a (membrane) transport issue, we then explored the corresponding ether derivative 27. Attempts to prepare this by acid catalysed ether formation failed and ultimately this was achieved through displacement of the corresponding benzylic chloride 25 (Scheme 3).
Fig. 2 Activity of a selection of simple amide and triazole linked CF analogues against a microsomal preparation of L. majIPCS and L. major promastigote parasites, respectively.

Row | LmjIPCS inhibition % at 20 µM ± SD [%] | IC50 [µM] | SMILES
1 | 77.9 ± 5.1 | 11.4 | O=C(C(c1ccccc1)c1ccc(Cl)cc1)N1CC2(CNC2)C1 (centres unmarked)
2 | 81.9 ± 2.8 | 12.7 | CCCCCC(NC(=O)C[C@@H]1CCCN1)c1ccccc1 (some centres unmarked)
3 | 79.4 ± 9.0 | 36.2 | O=C(NCc1nc2ccccc2s1)C(c1ccccc1)c1ccc(Cl)cc1 (centres unmarked)
4 | 53.4 ± 8.5 | 23.9 | O=C(NCc1ncc[nH]1)C(c1ccccc1)c1ccc(Cl)cc1 (centres unmarked)
5 | 89.6 ± 2.2 | 6.11 | CN1CCN(c2ncc(NC(=O)C(c3ccccc3)c3ccc(Cl)cc3)cn2)CC1 (centres unmarked)
6 | 89.2 ± 2.6 | 5.4 | O=C(NC1CC2CCC(C1)N2)C(c1ccccc1)c1ccc(Cl)cc1 (centres unmarked)
7 | 59.8 ± 29.9 | 17.1 | O=C(Nc1ccc2c(c1)CN(CCF)C2)C(c1ccccc1)c1ccc(Cl)cc1 (centres unmarked)
8 | 46.4 ± 5.8 | 28.3 | O=C(NCC1CCCN1)C(c1ccccc1)C1CCCC1 (centres unmarked)
9 | 57.2 ± 10.9 | 16.5 | O=C(Cc1ccc(C(F)(F)F)cc1C(F)(F)F)NCC1CCCN1 (centres unmarked)
10 | 44.4 ± 4.9 | 24.9 | O=C(C[C@@H]1CCCN1)NC(Cc1ccccc1)c1ccccc1 (some centres unmarked)
11 | 86.0 ± 2.7 | 13.1 | O=C(NCC1CNC1)C(c1ccccc1)c1ccc(Cl)cc1 (centres unmarked)
12 | 90.2 ± 1.7 | 4.37 | CN(C)CCn1cc2ccc(NC(=O)C(c3ccccc3)c3ccc(Cl)cc3)cc2n1 (centres unmarked)
13 | 76.1 ± 8.5 | 20.5 | O=C(NCCCN1CCCC1)C(c1ccccc1)c1ccc(Cl)cc1 (centres unmarked)
